Source: patent publication US12509459B2, “Inhibitors of NLRP3 inflammasome” (BioAge Labs, Inc., priority 2024, dated 2025)
pIC50: −log10 of the molar value.

The chains behind the UniProt entries cited, without tags or fusion partners.
UniProt Q96P20, whole entry: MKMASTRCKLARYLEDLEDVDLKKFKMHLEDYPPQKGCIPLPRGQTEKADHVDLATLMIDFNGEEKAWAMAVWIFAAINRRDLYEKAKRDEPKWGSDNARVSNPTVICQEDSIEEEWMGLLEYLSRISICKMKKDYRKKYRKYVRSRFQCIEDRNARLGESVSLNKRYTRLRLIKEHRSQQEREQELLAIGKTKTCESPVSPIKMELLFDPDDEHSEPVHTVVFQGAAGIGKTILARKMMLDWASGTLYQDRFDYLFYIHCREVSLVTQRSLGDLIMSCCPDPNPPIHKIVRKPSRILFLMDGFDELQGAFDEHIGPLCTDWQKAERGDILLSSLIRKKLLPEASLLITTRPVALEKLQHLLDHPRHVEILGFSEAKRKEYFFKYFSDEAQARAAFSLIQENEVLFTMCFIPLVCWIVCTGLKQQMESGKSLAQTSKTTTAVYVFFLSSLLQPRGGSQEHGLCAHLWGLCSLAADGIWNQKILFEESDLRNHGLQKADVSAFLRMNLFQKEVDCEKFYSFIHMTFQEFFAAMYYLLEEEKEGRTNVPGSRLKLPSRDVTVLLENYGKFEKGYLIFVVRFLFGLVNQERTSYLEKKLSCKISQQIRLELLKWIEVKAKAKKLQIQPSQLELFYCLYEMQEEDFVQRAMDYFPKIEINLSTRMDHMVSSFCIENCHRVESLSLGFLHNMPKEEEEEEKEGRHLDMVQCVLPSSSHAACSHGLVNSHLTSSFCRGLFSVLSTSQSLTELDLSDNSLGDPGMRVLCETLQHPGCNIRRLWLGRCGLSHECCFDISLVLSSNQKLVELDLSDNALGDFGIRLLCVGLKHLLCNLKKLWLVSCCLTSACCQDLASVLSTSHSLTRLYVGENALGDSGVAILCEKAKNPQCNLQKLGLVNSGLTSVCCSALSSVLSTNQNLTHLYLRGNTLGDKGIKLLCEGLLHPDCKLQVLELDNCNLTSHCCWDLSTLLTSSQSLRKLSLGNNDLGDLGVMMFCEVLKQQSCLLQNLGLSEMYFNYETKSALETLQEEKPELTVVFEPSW

Target: NLRP3 (Homo sapiens, UniProt Q96P20)
Experiment: THP-1 cell-based NLRP3 activation assay
Conditions: PMA-differentiated THP-1 cells, LPS 100 ng/mL then 10 μM nigericin

pIC50: > 7.00
SMILES: CCOc1cc(C(=O)N(C)[C@@H](c2cnc(C)c3cn[nH]c23)[C@H](C)O)ccc1-c1cccc(Cl)c1
